Legend:
Type in all cases: in vivo
animals [1] = experiment: Unspecific protection against lethality: hypoxia-hypobara (decompression), survival time; details: survival time under decompression; DOSE 40mg/kg
Excerpt: (§1) It is known that the nootropic drugs, as Piracetam, as well as the phenobarbital or hydantoine have a protection on the survival time of animals.
(§2) In the intention to increase the accuracy, we have a three trials panel in order to study the effect of the new synthetized drugs.
We have chosen the hypoxia-hypobara : the decompression kills the animals, because of the lack of 02.

animals [2] = experiment: Unspecific protection against lethality: anoxia by CNK, survival time; details: survival time after CNK; DOSE 40mg/kg
mouse = experiment: Unspecific protection against lethality: gasping time after quick decapitation; details: gasping time after decapitation of mouse; DOSE 40mg/kg
Excerpt: as §1, §2
The second trial is the quick decapitation of mouse. The head has a typical mandibular movement, known as gasping, as searching the breathing air. The gasping time is well prolonged by the active drugs.

CCCC(C)C1(CC)C(=O)NC(=O)NC1=O (stereo not drawn) [Pentobarbital]
Active: HYPOXIA HYPOBARA (animals [1]) | ANOXIA BY CNK (animals [2]) | GASPING (mouse)

Source: patent EP0089901A1, “New 2-oxo-1-pyrrolidineacetic acid esters, their methods of production and therapeutic compositions containing the same” (PRODES S.A., priority 1982, dated 1983)
